The list shows a part of the results, in another mix than the full data. Results filed as inconclusive are left out. Activity calls are given as the source filed them. Cut-off read from the data, not from the text of the source: active = max response below about -50%; inconclusive = no clear call, values can overlap the other calls; inactive = above that.
Each compound was assayed against D(3) dopamine receptor (Homo sapiens) (UniProt P35462) (assay: qHTS of D3 Dopamine Receptor Antagonist: qHTS). Conditions: D3R cells, DiscoveRx beta-arrestin luminescence, antagonist mode; stronger effect = lower value.
Description: D3 DARs represent a very important target for the treatment of several neuropsychiatric disorders. Indeed, one of the most promising therapeutic applications for the D3 DAR is in the area of addiction and related disorders. […] These findings have been observed with a number of addictive substances including cocaine, amphetamine, nicotine, and alcohol. […] Antagonism of the D3 DAR may also be therapeutic in the treatment of schizophrenia or psychosis. […] Since the D3 DAR is expressed in areas of the CNS associated with the control of mood and emotion, it has been hypothesized that selective antagonism of the D3 DAR may be effective in treating psychosis without inducing the motor side effects typically seen with D2 DAR antagonists.
This part of the project aims to discover novel antagonist.
NIH Chemical Genomics Center [NCGC]
NIH Molecular Libraries Probe Centers Network [MLPCN]
Assay Submitter (PI): David Sibley, NINDS
Freshly passaged cells are plated in 1536 well white, solid bottom plates at a density of 1500 cells/well in 3microl of complete media. After an overnight incubation at 37 degrees C in 5% CO2, cells are loaded with 23nl of test compound from the compound library (as well as dopamine controls) using a 1536 pintool and incubated at 37 degrees C for 90 minutes. Two microliters of DiscoveRx reagent is then added to all cells, and they are incubated for an additional 30 - 60 minutes at room temperature. Following incubation, luminescence is measured on a ViewLux CCD-based luminometer reader using a 20 sec exposure time.
% is set by controls: 0 for no effect and ±100 for the full control effect.

By UniProt entry, the sequences of proteins in these tests, tags left out.
UniProt P35462, whole entry: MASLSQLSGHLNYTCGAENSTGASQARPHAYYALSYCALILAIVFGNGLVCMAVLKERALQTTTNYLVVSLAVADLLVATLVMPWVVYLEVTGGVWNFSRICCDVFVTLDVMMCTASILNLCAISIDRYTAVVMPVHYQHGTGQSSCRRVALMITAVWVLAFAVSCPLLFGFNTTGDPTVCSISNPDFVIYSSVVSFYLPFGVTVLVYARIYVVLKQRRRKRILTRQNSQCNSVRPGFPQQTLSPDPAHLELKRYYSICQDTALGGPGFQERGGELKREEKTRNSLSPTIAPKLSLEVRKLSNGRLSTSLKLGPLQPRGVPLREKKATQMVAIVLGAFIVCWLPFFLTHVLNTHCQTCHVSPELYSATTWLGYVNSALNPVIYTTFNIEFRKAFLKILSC

| SMILES | max response, negative = inhibition |
| --- | --- |
| O=C(OC1CN2CCC1CC2)C1c2ccccc2C=Cc2ccccc21 (stereo not given) | inactive: 8.13% |
| O=C(O)c1cccc(Nc2c([N+](=O)[O-])cc([N+](=O)[O-])cc2[N+](=O)[O-])c1 | active: -112% |
| O=c1[nH]c2ccccc2n1C1CCN(C(c2cccs2)c2nnnn2C2CCCC2)CC1 (stereo not given) | inactive: 12.1% |
| CCCCn1nnnc1C(c1cccc(OC)c1OC)N1CCC(n2c(=O)[nH]c3ccccc32)CC1 (stereo not given) | inactive: 5.38% |
| CCOC(=O)N1CCC(Nc2ccc(C)cc2)CC1 | inactive: 20.6% |
| N/C(=N\O)c1c(N)no[n+]1[O-] | inactive: 0% |
| O=c1[nH]c2ccccc2n1C1CCN(C(c2cccs2)c2nnnn2C2CCCCC2)CC1 (stereo not given) | inactive: 24.2% |
| COc1ccc(C(=O)NCC2(N3CCOCC3)CCCCC2)cc1OC | inactive: -1.18% |
| O=c1[nH]c2ccccc2n1C1CCN(C(c2ccnc3ccccc23)c2nnnn2C2CCCC2)CC1 (stereo not given) | inactive: 45% |
| CCCCn1nnnc1C(c1ccccc1)N1CCC(n2c(=O)[nH]c3ccccc32)CC1 (stereo not given) | inactive: 23.5% |
| COc1cc(C(=O)NCC2(N3CCOCC3)CCCCC2)cc(OC)c1C | inactive: -11.4% |
| O=C(NCC1(N2CCOCC2)CCCCC1)c1cc(Br)ccc1Cl | inactive: 2.12% |
| CC(C)(C)n1nnnc1C(c1cccc2ccccc12)N1CCC(n2c(=O)[nH]c3ccccc32)CC1 (stereo not given) | inactive: 22.9% |
| CN(C)C1(CNC(=O)c2cccc(C#N)c2)CCCCC1 | inactive: 12% |
| O=c1[nH]c2ccccc2n1C1CCN(C(c2ccccc2)c2nnnn2C2CCCC2)CC1 (stereo not given) | inactive: 0% |
| CCCN1CCC(Nc2cc(OC)cc(OC)c2)CC1 | inactive: -18.6% |
| Cc1cc(N(CCCl)CCCl)ccc1C=O | inactive: 5.82% |
| CCOC(=O)C(CC)C1=NC(C)(C)Cc2ccccc21.O=[N+]([O-])c1cc([N+](=O)[O-])c(O)c([N+](=O)[O-])c1 (stereo not given) | inactive: -22.9% |
| N#Cc1ccc(C(=O)NCC2(N3CCCCC3)CCCCC2)cc1 | inactive: 7.34% |
| CC(C)(C)OC(=O)N1CCC(N(C(=O)c2ccccc2)c2ccc(Cl)cc2)CC1 | inactive: 0% |
| O=C(NCC1(N2CCCCC2)CCCCC1)c1ccco1 | inactive: -20.2% |
| Cn1c(=O)[nH]cc(N(CCCl)CCCl)c1=O | inactive: 0.66% |
| CN(C)c1ccc(C(=O)NCC2(N3CCCCC3)CCCCC2)cc1 | inactive: -8.48% |
| Cc1ccccc1NC1(C#N)CCN(Cc2ccccc2)CC1 | inactive: 1.6% |
| CC(C)(C)n1nnnc1C(c1ccnc2ccccc12)N1CCC(n2c(=O)[nH]c3ccccc32)CC1 (stereo not given) | inactive: 7.92% |

| SMILES | max response, negative = inhibition |
| --- | --- |
| CCN1CCC(Nc2cccc(F)c2)CC1 | inactive: -7.08% |
| Cc1ccc(C(=O)NCC2(N3CCCCC3)CCCCC2)o1 | inactive: 12.8% |
| Cc1ccc(NC2(C#N)CCN(Cc3ccccc3)CC2)cc1 | inactive: -16.8% |
| CC(=O)N(c1ccccc1)C1CCNCC1 | inactive: 11.7% |
| COc1cccc(C(c2nnnn2C2CCCCC2)N2CCC(n3c(=O)[nH]c4ccccc43)CC2)c1OC (stereo not given) | inactive: 93% |
| CCC(c1nnnn1C1CCCCC1)N1CCC(n2c(=O)[nH]c3ccccc32)CC1 (stereo not given) | inactive: 12.2% |
| O=c1[nH]c2ccccc2n1C1CCN(C(c2ccnc3ccccc23)c2nnnn2C2CCCCC2)CC1 (stereo not given) | inactive: 62.7% |
| CN1CCC(Nc2ccc(Cl)cc2)CC1 | inactive: -4.91% |
| COc1cccc(C(c2nnnn2C2CCCC2)N2CCC(n3c(=O)[nH]c4ccccc43)CC2)c1OC (stereo not given) | inactive: 64.4% |
| COc1cc(OC)cc(C(=O)NCC2(N3CCOCC3)CCCCC2)c1 | inactive: 13.6% |
| COc1cccc(C(=O)N(c2cc(C)cc(C)c2)C2CCN(C(=O)OC(C)(C)C)CC2)c1 | inactive: 1.15% |
| CCC(CO)(C(=O)OC1CN2CCC1CC2)c1ccccc1 (stereo not given) | inactive: 16.5% |
| CC(C)(C)OC(=O)N1CCC(Nc2ccccc2)CC1 | inactive: -1.07% |
| O=C(O)C1(Nc2ccccc2)CCN(Cc2ccccc2)CC1 | inactive: -23.8% |
| NN(c1ccccc1)C1CCN(CCc2ccccc2)CC1 | inactive: 0% |
| CCCOc1ccc(C(=O)NCC2(N(C)C)CCCCC2)cc1 | inactive: 2.71% |
| O=c1[nH]c2ccccc2n1C1CCN(C(c2cc3ccccc3o2)c2nnnn2C2CCCC2)CC1 (stereo not given) | inactive: 36.2% |
| CCOc1ncccc1C(=O)NCC1(N2CCOCC2)CCCCC1 | inactive: -8.54% |
| CN1CCC(Nc2ccc(F)c(Cl)c2)CC1 | inactive: -11.9% |
| O=C(OC1CN2CCC1CC2)C1c2ccccc2Oc2ccccc21 (stereo not given) | inactive: -3.24% |
| O=c1[nH]c2ccccc2n1C1CCN(C(c2cc3ccccc3o2)c2nnnn2C2CCCCC2)CC1 (stereo not given) | inactive: 53.7% |
| N#CC1(Nc2ccccc2)CCN(Cc2ccccc2)CC1 | inactive: -12.7% |
| O=C1C(O)=C([N+](=O)[O-])C(=O)C(O)=C1[N+](=O)[O-] | inactive: -18.9% |
| COc1ccc(Cl)cc1C(=O)NCC1(N2CCOCC2)CCCCC1 | inactive: -3.75% |
| CCOC(=O)N1CCC(Nc2ccc(OC)cc2)CC1 | inactive: 5.11% |

Source: PubChem BioAssay AID652054 (National Center for Advancing Translational Sciences (NCATS), 2013)
